Patent publication US20190367871A1, “EMBRYONIC STEM CELL MEDIA AND CULTURE” (YISSUM RESEARCH DEVELOPMENT COMPANY OF THE HEBREW …, priority 2018, published 2019)

Tests used:
mTORC1 = mTORC1 (Homo sapiens, UniProt P42345); assay: Western blot of phosphorylated 4E-BP1 (mTORC1 target) in hESCs; assay type: cell-based; conditions: short- and long-term treatment
mTORC2 = mTORC2 (Homo sapiens, UniProt P42345); assay: Western blot of phosphorylated AKT (mTORC2 target) in hESCs; assay type: cell-based; conditions: short- and long-term treatment

CCC(=O)N1CCN(c2ccc(-n3c(=O)ccc4cnc5ccc(-c6cnc7ccccc7c6)cc5c43)cc2C(F)(F)F)CC1 [Torin 1]
mTORC1 activity (phosphorylated 4E-BP1) (mTORC1): inhibit both mTORC1 and mTORC2; also recorded: inhibits both complexes
mTORC2 activity (phosphorylated AKT) (mTORC2): inhibit both mTORC1 and mTORC2; also recorded: inhibits both complexes

“Also recorded” adds a separate entry of the source.
